From patent publication US9556187B2, “Substituted pyrrolo[3′,2′:5,6]pyrido[4,3-d]pyrimidines and JAK inhibitors comprising the same” (priority 2011, dated 2017)

By UniProt entry, the sequences of proteins in these tests, tags left out. Where a name states a change or a piece, a line headed by the entry shows the natural chain unless it says otherwise.
UniProt P23458: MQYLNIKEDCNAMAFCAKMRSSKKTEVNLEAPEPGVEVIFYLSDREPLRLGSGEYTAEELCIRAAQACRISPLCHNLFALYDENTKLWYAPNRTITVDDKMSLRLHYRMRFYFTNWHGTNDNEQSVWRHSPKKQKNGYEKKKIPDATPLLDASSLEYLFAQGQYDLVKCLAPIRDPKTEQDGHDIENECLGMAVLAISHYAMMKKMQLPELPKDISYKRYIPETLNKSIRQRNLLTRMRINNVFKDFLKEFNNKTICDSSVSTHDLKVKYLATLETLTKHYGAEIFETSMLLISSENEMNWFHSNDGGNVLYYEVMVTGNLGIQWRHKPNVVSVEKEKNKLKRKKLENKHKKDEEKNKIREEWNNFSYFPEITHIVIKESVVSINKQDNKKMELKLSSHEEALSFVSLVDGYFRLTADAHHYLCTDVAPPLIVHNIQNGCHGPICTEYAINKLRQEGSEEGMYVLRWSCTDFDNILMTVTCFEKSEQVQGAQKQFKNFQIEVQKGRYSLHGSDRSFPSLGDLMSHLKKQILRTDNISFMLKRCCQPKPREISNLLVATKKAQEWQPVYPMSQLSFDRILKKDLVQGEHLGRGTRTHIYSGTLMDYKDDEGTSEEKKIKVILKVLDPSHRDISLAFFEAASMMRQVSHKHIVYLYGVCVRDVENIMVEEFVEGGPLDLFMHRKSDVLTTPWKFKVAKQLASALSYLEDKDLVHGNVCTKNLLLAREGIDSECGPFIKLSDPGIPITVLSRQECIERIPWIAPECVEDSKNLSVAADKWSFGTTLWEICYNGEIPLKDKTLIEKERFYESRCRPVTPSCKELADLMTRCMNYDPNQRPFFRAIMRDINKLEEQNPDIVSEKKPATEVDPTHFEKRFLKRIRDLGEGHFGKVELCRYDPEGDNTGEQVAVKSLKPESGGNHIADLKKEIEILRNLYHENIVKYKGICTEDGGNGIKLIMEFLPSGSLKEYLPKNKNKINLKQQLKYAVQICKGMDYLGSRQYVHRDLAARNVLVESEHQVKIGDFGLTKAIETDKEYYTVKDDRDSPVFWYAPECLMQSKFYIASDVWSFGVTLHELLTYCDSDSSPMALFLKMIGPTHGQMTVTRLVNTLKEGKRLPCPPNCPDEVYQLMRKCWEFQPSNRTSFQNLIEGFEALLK

Legend:
Type in all cases: biochemical
Conditions in all cases: ATP 100 μM
JAK1 [1] = molecular target: T1, JAK1 (Homo sapiens (Human), UniProt P23458); test: Enzyme assay (LANCE Ultra ULight-JAK1 Peptide), JAK1
JAK2 = JAK2 (Homo sapiens (Human), UniProt O60674); test: Enzyme assay (LANCE Ultra ULight-JAK1 Peptide), JAK2
JAK1 [2] = molecular target: T1, JAK1; test: Enzyme assay, JAK1 (Assay Example^b 1)

SMILES: O=C(OCc1ccccc1)N1CCC(c2nnn3cnc4[nH]ccc4c23)CC1 [Ex 84]
- IC50 (JAK1 [1]): 0.018 µM
- IC50 (JAK2): 0.089 µM
- IC50 (JAK1 [2]): 0.00075 µM
